Consider one molecule from ChEMBL document CHEMBL1122788, “Quantitative relationships between alpha-adrenergic activity and binding affinity of alpha-adrenoceptor agonists and antagonists” (J Med Chem, 1984).

Amino acid sequences for entries named in this document (tags omitted). A change or cut given only in a name is not applied to a line headed by its entry.
UniProt P22086: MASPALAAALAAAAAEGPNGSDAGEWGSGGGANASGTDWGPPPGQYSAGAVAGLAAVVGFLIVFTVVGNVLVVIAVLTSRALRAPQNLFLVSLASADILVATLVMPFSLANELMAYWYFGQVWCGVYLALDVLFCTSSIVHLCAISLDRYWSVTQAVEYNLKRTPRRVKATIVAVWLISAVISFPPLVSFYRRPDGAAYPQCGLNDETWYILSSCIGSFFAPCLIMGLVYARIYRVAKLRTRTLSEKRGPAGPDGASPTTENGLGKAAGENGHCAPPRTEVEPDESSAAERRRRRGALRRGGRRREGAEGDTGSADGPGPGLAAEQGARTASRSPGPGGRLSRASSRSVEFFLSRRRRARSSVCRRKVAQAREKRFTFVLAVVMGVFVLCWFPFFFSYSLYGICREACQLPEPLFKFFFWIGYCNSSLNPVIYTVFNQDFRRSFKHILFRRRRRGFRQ
UniProt P19328: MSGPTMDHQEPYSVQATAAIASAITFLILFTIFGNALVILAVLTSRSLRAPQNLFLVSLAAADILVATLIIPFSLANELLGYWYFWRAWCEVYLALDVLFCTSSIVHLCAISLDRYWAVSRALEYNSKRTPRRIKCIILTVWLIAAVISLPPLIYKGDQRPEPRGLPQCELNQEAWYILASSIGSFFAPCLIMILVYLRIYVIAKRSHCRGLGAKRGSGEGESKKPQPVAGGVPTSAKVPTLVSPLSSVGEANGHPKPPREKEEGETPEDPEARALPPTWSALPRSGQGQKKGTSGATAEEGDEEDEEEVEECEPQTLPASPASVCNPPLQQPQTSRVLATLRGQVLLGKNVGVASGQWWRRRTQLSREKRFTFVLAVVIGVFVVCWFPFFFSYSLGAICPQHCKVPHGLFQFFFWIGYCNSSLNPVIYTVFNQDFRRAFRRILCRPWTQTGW
UniProt P22909: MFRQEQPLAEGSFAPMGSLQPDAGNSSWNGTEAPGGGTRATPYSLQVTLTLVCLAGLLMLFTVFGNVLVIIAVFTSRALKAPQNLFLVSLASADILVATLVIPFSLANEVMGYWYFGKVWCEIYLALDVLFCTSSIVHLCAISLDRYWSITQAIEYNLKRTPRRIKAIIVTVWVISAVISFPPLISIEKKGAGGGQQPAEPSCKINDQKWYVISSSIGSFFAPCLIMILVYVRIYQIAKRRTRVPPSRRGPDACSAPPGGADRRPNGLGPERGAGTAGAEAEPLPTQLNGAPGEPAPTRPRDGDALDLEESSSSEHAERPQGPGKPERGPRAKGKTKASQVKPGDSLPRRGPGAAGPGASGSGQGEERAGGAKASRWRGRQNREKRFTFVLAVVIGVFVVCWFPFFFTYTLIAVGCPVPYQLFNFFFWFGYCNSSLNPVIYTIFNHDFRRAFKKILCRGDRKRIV

A word on the IC50: it is the concentration at which inhibition is half-maximal. Low readings indicate inhibition by little substance, high ones a need for much substance.

The experiment concerns the target Adrenergic receptor alpha-2 (Rattus norvegicus, UniProt P22086+P19328+P22909). The experiment in a line: Binding affinity against Alpha-2 adrenergic receptor is the ability to inhibit the specific [3H]clonidine binding (0.4 nM) to rat isolated brain membranes by 50% was reported; 4.8*10e-9. Format: tissue-based, Membrane.

`c1ccc2c(CC3=NCCN3)cccc2c1` [NAPHAZOLINE] registered an IC50 of 4.8 nM.
